## Binding of CDR-mutated scFvs to a peptide of the spike HR2 region

Data: MIT Lincoln Laboratory AlphaSeq set, Li et al. 2023, doi:10.1038/s41467-023-39022-2, as distributed in FLAb.

Target peptide (SARS-CoV-2 spike, HR2 region): PDVDLGDISGINAS

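The starting antibody came from a phage panning campaign against this peptide. These sequences belong to a second round, designed from the earlier measurements on random variants of the parent. Several design methods are mixed in this list. The assay is AlphaSeq: two haploid yeast populations carry antibody and antigen on their surface. The frequency of each diploid, read from paired DNA barcodes, reflects how well the two displayed proteins bind. Each replicate has its own calibration line, from reference interactions of the BCL2 family. The assay was run in six technical replicates.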

The variants keep the heavy chain, the linker and the frameworks of Ab-14 (scFv order VH, the linker GGGGSGGGGSGGGGS, VL).
VH: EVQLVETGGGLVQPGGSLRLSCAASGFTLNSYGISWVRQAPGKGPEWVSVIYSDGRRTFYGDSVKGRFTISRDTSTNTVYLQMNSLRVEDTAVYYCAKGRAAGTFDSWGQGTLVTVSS
VL: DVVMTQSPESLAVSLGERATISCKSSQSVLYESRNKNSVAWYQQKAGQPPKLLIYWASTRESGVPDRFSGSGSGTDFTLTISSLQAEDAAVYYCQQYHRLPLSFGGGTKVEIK

The parent's light chain CDRs are KSSQSVLYESRNKNSVA, WASTRES, QQYHRLPLS; each variant's own CDRs replace them letter for letter.
This list holds designs with at most six substitutions.
The read-out is the apparent dissociation constant on a log10 scale (nM): the lower, the stronger.
An entry "ND" has no value in the source: the pair was not observed among the diploids in that replicate. This suggests poor binding but is not conclusive.
Of ten entries with the parent sequence, four were seen in most replicates (averages 0.34 to 2.37), three in one and three in none, so single entries are noisy.

* KSSQSVLLETRNKNSVA | WASTRES | QQYHRLPLS: ND, 2.18, 3.29, 2.72, 2.34, ND
* KSSQSNLYESRNKPSVA | WASVRES | QQYHREPLS: 1.58, 0.74, ND, ND, ND, ND
* KSSQSVLYESRNKNSIA | WALTREC | QQYHRLPLS: ND, ND, ND, ND, ND, ND
* KQSQEVLPESRNKNSVA | DASTRES | QQYHRLPLS: ND, 0.11, 0.47, 0.81, 0.82, 0.32
* KVMQSELYESRNKNSVA | NASQRES | QQYHRLPLS: 0.00, 0.09, -0.12, -0.12, 0.13, 0.04
* KQSQSVDYESRNKNAVA | DASTRES | QQYHRLPLS: -0.34, -0.43, -0.38, -0.61, -0.21, -0.09
* KLRQSTLYESRNKNSVA | WASTHEL | QQYHRLPLS: 2.18, ND, ND, 3.25, ND, ND
* KLSQSDLYESRNKNSVA | EASTRMS | QQYHRLPLS: 0.19, -0.09, -0.09, -0.22, -0.06, -0.14
* KSSQSVGYESRNKNSVA | WASTRES | QQYYRLPLS: ND, ND, ND, ND, ND, ND
* KSSQSVLYESRNHNSVA | WASTRES | QQYHRLPIS: ND, ND, ND, ND, ND, ND
* KLSQSFLYESRNKNSVA | DASTRES | QDYHRLPLS: -0.22, -0.13, -0.15, -0.37, -0.14, 0.13
* HSSPTVTYESRNKNSWA | NASTRES | QQYHRLPLS: 0.11, 0.06, -0.03, 0.31, 1.17, 0.48
* KVQQSNLYESRNKNSVA | NASYRES | QQYHRLPLS: 0.30, 0.17, 0.39, 0.24, 0.09, 0.18
* KSSISVQYESRNKNSVA | SASTREI | QQYHRLPLS: 0.57, 0.19, 0.25, 0.03, 0.32, 0.22
* KSSSSVLYESRNKNSVA | WATHRES | QQYHRLPLE: ND, 2.37, 3.33, 2.42, 2.45, ND
* KSSQSVLYESENSNSVA | WASTRES | QQYHYLPLS: ND, ND, ND, 2.62, ND, ND
* KVSQSHLYESRNKNSVA | HASTRES | QQYHRLPLS: 0.90, 1.09, 0.58, 0.38, 0.37, 1.01
* KFSQSWLYESRNKNSVA | NASQRLS | QQYHRLPLS: -0.19, -0.25, -0.41, -0.24, -0.31, -0.14
* KSSSEVEYESYNKNQVA | WASTRES | QQYHRLPLS: ND, 3.23, 1.98, ND, 1.90, ND
* KWSQGVMGESRNFNSVA | NASTRES | QQYHRLPLS: 0.13, -0.11, -0.05, -0.18, -0.22, 0.15
* KMEQGMLYESRNKNSVA | NASVRES | QQYHRLPLS: 0.19, -0.13, -0.32, -0.27, -0.19, -0.11
* KVSNSYLLESRNKNSVA | EASTRES | QQYHRLPLS: 0.05, 0.22, 0.15, 0.02, -0.07, 0.23
* KSSQSVLYESRNKNSVA | HASTRES | QQYHRLPLG: ND, 1.22, ND, 2.07, 1.86, ND
* KSLFSWLYESRNKNSVA | HASTREQ | QQYHRLPLS: ND, 1.46, ND, 3.24, 1.72, 1.00
* KLSQSVLYESRNKNSVA | HASTREQ | QQYHRLPLS: -0.13, -0.18, -0.44, -0.39, -0.39, -0.14
* KLQQSELYESRNKNSVA | NASTRYS | QQYHRLPLS: -0.11, -0.32, -0.29, -0.35, -0.20, 0.00
* KSSQSVLYESRNKNSVA | WASTRES | QQYHNLPLS: ND, ND, ND, ND, 3.07, ND
* KLLQSVLYESRNKNSVA | NASQRES | QQYHRLPLS: 0.42, -0.06, 0.00, 0.29, 0.31, 0.42
* KLSQSMLYESRNKNSVA | QASQRES | QQYHRLPLS: -0.35, -0.50, -0.24, -0.63, -0.47, -0.51
* KQSQSVLYEARNKNSVA | DASTRES | QQYHRLPLS: -0.01, -0.16, -0.15, -0.09, -0.16, 0.46
* KLLQSVLYESRDKNSVA | NASTRED | QQYHRLPLS: 0.35, 0.00, -0.10, -0.07, 0.09, 0.39
* KLSQSVWMESRNKWSVA | NASYRES | QQYHRLPLS: 0.06, 0.15, -0.13, 0.00, -0.10, -0.15
* KLPQSFLYESRNKNSVA | DASTRES | QQYHRLPLS: -0.20, -0.36, -0.40, -0.40, -0.46, -0.22
* KVSQSVLFESRNKNSVA | DASTRCS | QQYHRLPLE: -0.05, -0.18, -0.19, -0.30, -0.20, -0.02
* KSSQSVLYESMNENSVA | GASTRES | QQYHRGPLS: 1.45, 1.06, 0.86, 0.53, 0.28, 1.98
* KLVNSTLYESRQKNSVA | MASTRES | QQYHRLPLS: 2.58, 2.10, 2.71, ND, 2.98, ND
* KMSQSPLYESRNVNSVA | DASHRES | QQYHRLPLS: -0.01, -0.22, -0.44, -0.02, -0.31, 0.08
* KVRQSVLYESRNKNSVA | NASTRES | QQYHRLPLS: -0.05, -0.31, -0.21, -0.39, -0.30, -0.16
* KCSQSVLYEDRNKNSVA | NASQRES | QQYHRLPLS: 0.11, -0.17, -0.24, -0.16, -0.04, 0.11
* KSSQSVLYESRDKNSVA | WASTREV | QQYHILPLS: 1.87, 1.81, 1.98, 3.03, 3.80, 1.71

The 6 strongest on average among those seen in every replicate, once more:

- KLSQSMLYESRNKNSVA | QASQRES | QQYHRLPLS = -0.35, -0.50, -0.24, -0.63, -0.47, -0.51
- KQSQSVDYESRNKNAVA | DASTRES | QQYHRLPLS = -0.34, -0.43, -0.38, -0.61, -0.21, -0.09
- KLPQSFLYESRNKNSVA | DASTRES | QQYHRLPLS = -0.20, -0.36, -0.40, -0.40, -0.46, -0.22
- KLSQSVLYESRNKNSVA | HASTREQ | QQYHRLPLS = -0.13, -0.18, -0.44, -0.39, -0.39, -0.14
- KFSQSWLYESRNKNSVA | NASQRLS | QQYHRLPLS = -0.19, -0.25, -0.41, -0.24, -0.31, -0.14
- KVRQSVLYESRNKNSVA | NASTRES | QQYHRLPLS = -0.05, -0.31, -0.21, -0.39, -0.30, -0.16

The authors' rule: three or more of the six replicates give a measured affinity, fewer mean a poor binder.
Three control strains display no target. For all light chain designs, 4% of the pairings with them gave a signal, with a median of 2.64 and one signal in twenty below 1.59, so weak values seen in few replicates may be background.
Values of this round are not directly comparable with the first-round values of the same sequences.